In one assay the test system is HNSCC. As to conditions: HNSCC patients; cited from earlier work.
Assay [1] concerns HNSCC cell line 1483 xenograft tumors. The assay is described as follows: Antitumor effect in HNSCC xenograft model, tumor volume. The format is in vivo, Athymic nude mice. The following applies: 2 weeks treatment, comparison between the three treated groups.

Consider 1 substance from PMC3684443 (ACS chemical biology, 2012).

For “cetuximab: FDA-approved EGFR-specific antibody that binds the extracellular ligand-binding domain of EGFR”, the Clinical response rates with HNSCC is 10−13%. Also, the “Response among erlotinib, cetuximab and EGFRAS-GPNA groups” value in assay [1] was “no significant difference”.
